Values of other authors in patent US20160199463A1, “HDAC2 DEFENDS VASCULAR ENDOTHELIUM FROM INJURY” (The Johns Hopkins University, priority 2014, published 2016).

Target: T1, HDAC8 (Homo sapiens, UniProt Q9BY41)
T1 sequence (Q9BY41 1-377): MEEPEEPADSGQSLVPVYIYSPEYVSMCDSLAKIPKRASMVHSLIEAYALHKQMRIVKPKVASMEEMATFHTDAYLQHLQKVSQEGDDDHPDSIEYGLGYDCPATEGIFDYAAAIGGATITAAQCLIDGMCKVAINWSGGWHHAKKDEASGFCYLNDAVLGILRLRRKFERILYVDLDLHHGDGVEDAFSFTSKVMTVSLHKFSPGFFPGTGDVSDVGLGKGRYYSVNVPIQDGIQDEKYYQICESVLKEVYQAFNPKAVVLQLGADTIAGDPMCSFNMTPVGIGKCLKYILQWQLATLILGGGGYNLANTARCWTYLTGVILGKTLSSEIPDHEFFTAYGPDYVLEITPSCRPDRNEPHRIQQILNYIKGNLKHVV
Details: cited from earlier work

SMILES: CC(/C=C/C(=O)NO)=C\[C@@H](C)C(=O)c1ccc(N(C)C)cc1 [TSA, trichostatin A]
- block of HDAC8: do not block
